## Measured affinities in a library of Ab-14 light chain variants

Data: MIT Lincoln Laboratory AlphaSeq set, Engelhart et al. 2022, doi:10.1038/s41597-022-01779-4, as distributed in FLAb.

The target is the same throughout: PDVDLGDISGINAS, from the HR2 region of SARS-CoV-2 spike.

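Phage display of a naive human antibody library on the peptide gave the parent. The library (AAYL50) carries one to three amino acid substitutions per variant, with no insertions or deletions. In AlphaSeq, yeast of one mating type display the scFv and yeast of the other type display the target. Binding brings cells together so that they mate, and sequencing counts the barcode pairs among the diploids. The ratio of observed to expected reads was calibrated, replicate by replicate, on BCL2-family standards whose Kd was known from biolayer interferometry. There are three technical replicates.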

The variants keep the heavy chain, the linker and the frameworks of Ab-14 (scFv order VH, a 15-residue (Gly4Ser)3 linker, VL).
VH: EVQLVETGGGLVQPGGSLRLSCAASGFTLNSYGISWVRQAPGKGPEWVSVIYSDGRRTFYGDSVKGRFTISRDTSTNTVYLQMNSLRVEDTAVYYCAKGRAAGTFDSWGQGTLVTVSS
VL: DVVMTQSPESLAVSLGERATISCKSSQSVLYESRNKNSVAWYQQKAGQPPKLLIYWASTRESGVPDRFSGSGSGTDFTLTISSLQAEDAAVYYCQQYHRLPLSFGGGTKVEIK

Changes read parent residue, position, new residue, counted from the first residue of the VL shown.
Kd is apparent (estimated from mating counts) and averaged on the log scale over replicates with a signal. Smaller is tighter.
An entry "no signal" has no value in the source: the pair was not observed among the diploids in any replicate. This suggests poor binding but is not conclusive.
In this assay the parent's reference entry averaged 4.4 nM; its copy inside this library read 48 nM.
Nonspecific signal, from three strains lacking the peptide, appeared in 18% of pairings of library AAYL50, centred on 15 µM (5% of these signals below 970 nM); values are not corrected for it. Also given: how often the same scFv was detected with the empty control strains.

changes	apparent Kd	detected	signal with controls
A57T+E61P+L100P	120 nM	3 of 3	0 of 9
L30R+S38G+A57F	no signal	0 of 3	4 of 9
S58R+H98K	150 nM	3 of 3	3 of 9
A57H+Y97C	no signal	0 of 3	1 of 9
S28L+Y31M+W56N	1.4 nM	3 of 3	2 of 9
R34K+Y97G+L100M	120 µM	2 of 3	5 of 9
V39F+R99L+S103Y	240 nM	1 of 3	1 of 9
Q27Y+Y31G+A57K	34 nM	3 of 3	1 of 9
T59Q+Q95G	83 nM	3 of 3	2 of 9
K24W+Q96S+Y97D	no signal	0 of 3	3 of 9
Y31N+E32G+T59F	18 nM	3 of 3	0 of 9
K36S+Q95K+L100Q	no signal	0 of 3	0 of 9
R34Y+K36I+L100E	61 µM	2 of 3	2 of 9
T59Y+L100G+S103P	no signal	0 of 3	0 of 9
E32C+K36E+N37M	40 nM	3 of 3	1 of 9
Y31A+S38L+E61Q	no signal	0 of 3	1 of 9
S26Q+R99C+S103M	no signal	0 of 3	0 of 9
A40C+Q95R+R99L	440 nM	3 of 3	2 of 9
Y31L+W56V	no signal	0 of 3	0 of 9
S26W+E61L	38 nM	3 of 3	2 of 9
Y31G+N35V+H98P	no signal	0 of 3	1 of 9
E32L+Y97W+L102H	87 nM	3 of 3	2 of 9
Y31K+L102I	510 nM	1 of 3	1 of 9
A40I+W56S+L100R	26 µM	2 of 3	4 of 9
R34H+Q96A+Y97G	4.4 nM	3 of 3	3 of 9
Q27P+Y97C+L100D	4.3 nM	3 of 3	0 of 9
V29H+N35H+Y97D	no signal	0 of 3	0 of 9
S26H+A40S+T59C	no signal	0 of 3	3 of 9
Q27H+N35R+L100W	440 nM	3 of 3	2 of 9
S33T+Y97S+S103P	no signal	0 of 3	0 of 9
T59K+E61D+P101C	58 nM	3 of 3	5 of 9
R34M+A57N+S62E	540 nM	3 of 3	1 of 9
K24C+Y97W+P101E	no signal	0 of 3	2 of 9
V29Y+R34M+N37F	no signal	0 of 3	0 of 9
S38Y+Q96F+L100I	730 nM	3 of 3	1 of 9
R34N+K36Y+R60D	no signal	0 of 3	1 of 9
E32R+R34D+E61I	32 nM	3 of 3	2 of 9
E32R+S38K+Q96S	no signal	0 of 3	0 of 9
N37S+A40G+H98N	85 µM	2 of 3	3 of 9
L30A+S38E+Y97F	160 nM	3 of 3	2 of 9
S28P+E61A+L102N	320 nM	3 of 3	5 of 9
V29N+R99A+L100I	100 nM	2 of 3	0 of 9
Q27F+R60N+P101K	70 µM	2 of 3	5 of 9
S28Y+L100C	27 nM	3 of 3	4 of 9
K24G+R34N+R60L	38 nM	3 of 3	1 of 9
Q27D+E61T+S62H	63 nM	3 of 3	1 of 9
S28E+V39K+H98I	78 µM	1 of 3	0 of 9
V29E+E32N+S103G	14 nM	3 of 3	7 of 9
S25D+S28P+S33T	17 nM	3 of 3	5 of 9
R99V+L100Q+P101I	12 nM	3 of 3	2 of 9
Y31F+S33H	910 nM	3 of 3	1 of 9
S38L+Y97C	no signal	0 of 3	1 of 9
V29K+N35T+Q95R	10 µM	1 of 3	1 of 9
Q27K+S28W+Y97F	600 nM	3 of 3	5 of 9
S25M+S26Q+L30N	1.1 nM	3 of 3	1 of 9
L30T+S33C+A57Q	12 µM	2 of 3	1 of 9
K24P+S33E+S38D	14 µM	2 of 3	5 of 9
Q27D+S58C+L100M	1.5 µM	3 of 3	7 of 9
E32F+E61R+H98Y	no signal	0 of 3	1 of 9
Q27Y+L30K+R99N	95 nM	3 of 3	0 of 9
V29R+R99M+P101Y	7.5 µM	1 of 3	2 of 9
N35Q+T59A	220 nM	3 of 3	1 of 9
K36Y+N37Q+A40W	no signal	0 of 3	0 of 9
S25P+R34D+A57P	39 µM	1 of 3	2 of 9
S25L+A40S+Y97F	1.1 µM	3 of 3	1 of 9
S33P+V39Y+T59H	no signal	0 of 3	1 of 9
R60Y+P101M+L102N	no signal	0 of 3	3 of 9
S62N+R99A+L102N	no signal	0 of 3	1 of 9
V39M+S58V+Y97F	250 nM	3 of 3	2 of 9
V29L+V39F+W56H	3.3 nM	3 of 3	3 of 9
K24V+E32C+R60C	no signal	0 of 3	0 of 9
S62R+S103C	24 nM	3 of 3	0 of 9
W56D+Q96L+H98M	580 pM	3 of 3	7 of 9
S58N+S62P+L102Y	no signal	0 of 3	1 of 9
K24A+V29S+H98Q	240 µM	1 of 3	0 of 9
S33V+S62K+S103K	270 nM	2 of 3	0 of 9
L30H+N37A+T59N	89 nM	3 of 3	2 of 9
S33F+N35C+L100M	31 µM	2 of 3	2 of 9

Excerpt, the final 8 entries:

{"changes": "K24V+E32C+R60C", "apparent Kd": "no signal", "detected": "0 of 3", "signal with controls": "0 of 9"}
{"changes": "S62R+S103C", "apparent Kd": "24 nM", "detected": "3 of 3", "signal with controls": "0 of 9"}
{"changes": "W56D+Q96L+H98M", "apparent Kd": "580 pM", "detected": "3 of 3", "signal with controls": "7 of 9"}
{"changes": "S58N+S62P+L102Y", "apparent Kd": "no signal", "detected": "0 of 3", "signal with controls": "1 of 9"}
{"changes": "K24A+V29S+H98Q", "apparent Kd": "240 µM", "detected": "1 of 3", "signal with controls": "0 of 9"}
{"changes": "S33V+S62K+S103K", "apparent Kd": "270 nM", "detected": "2 of 3", "signal with controls": "0 of 9"}
{"changes": "L30H+N37A+T59N", "apparent Kd": "89 nM", "detected": "3 of 3", "signal with controls": "2 of 9"}
{"changes": "S33F+N35C+L100M", "apparent Kd": "31 µM", "detected": "2 of 3", "signal with controls": "2 of 9"}